The target in the test is Glutamate receptor ionotropic, NMDA 1/2C/3B (Homo sapiens, UniProt O60391+Q05586+Q14957).

Chains of the proteins cited; added tags and fusions are not shown. Lines headed by an entry give the natural chain unless they say otherwise; changes in a name come on top.
UniProt O60391: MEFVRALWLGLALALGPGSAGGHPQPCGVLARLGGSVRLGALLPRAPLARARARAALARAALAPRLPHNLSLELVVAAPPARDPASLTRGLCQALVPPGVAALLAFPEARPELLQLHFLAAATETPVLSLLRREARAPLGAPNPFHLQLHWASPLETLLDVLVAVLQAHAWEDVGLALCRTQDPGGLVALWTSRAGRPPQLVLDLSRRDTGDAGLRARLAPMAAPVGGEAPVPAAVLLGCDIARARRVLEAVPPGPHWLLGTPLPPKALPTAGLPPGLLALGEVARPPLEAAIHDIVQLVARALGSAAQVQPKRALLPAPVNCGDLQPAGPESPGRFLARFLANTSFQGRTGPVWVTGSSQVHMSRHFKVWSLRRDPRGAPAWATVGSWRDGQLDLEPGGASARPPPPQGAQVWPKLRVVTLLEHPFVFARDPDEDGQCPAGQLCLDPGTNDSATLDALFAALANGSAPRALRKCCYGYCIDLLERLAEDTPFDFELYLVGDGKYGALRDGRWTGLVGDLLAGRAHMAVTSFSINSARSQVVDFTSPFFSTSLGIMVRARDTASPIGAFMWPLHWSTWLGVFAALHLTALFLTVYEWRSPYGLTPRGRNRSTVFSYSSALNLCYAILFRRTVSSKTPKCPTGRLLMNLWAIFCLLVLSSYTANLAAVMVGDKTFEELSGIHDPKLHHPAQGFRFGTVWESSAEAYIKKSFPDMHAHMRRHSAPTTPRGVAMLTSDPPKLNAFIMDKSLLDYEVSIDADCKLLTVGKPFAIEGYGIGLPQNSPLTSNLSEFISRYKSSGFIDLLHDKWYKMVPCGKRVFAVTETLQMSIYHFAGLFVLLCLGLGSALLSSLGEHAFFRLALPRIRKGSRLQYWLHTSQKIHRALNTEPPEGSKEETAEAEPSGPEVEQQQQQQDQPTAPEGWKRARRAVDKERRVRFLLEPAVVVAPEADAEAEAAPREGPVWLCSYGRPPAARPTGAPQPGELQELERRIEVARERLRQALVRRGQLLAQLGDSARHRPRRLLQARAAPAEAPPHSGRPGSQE
UniProt Q14957: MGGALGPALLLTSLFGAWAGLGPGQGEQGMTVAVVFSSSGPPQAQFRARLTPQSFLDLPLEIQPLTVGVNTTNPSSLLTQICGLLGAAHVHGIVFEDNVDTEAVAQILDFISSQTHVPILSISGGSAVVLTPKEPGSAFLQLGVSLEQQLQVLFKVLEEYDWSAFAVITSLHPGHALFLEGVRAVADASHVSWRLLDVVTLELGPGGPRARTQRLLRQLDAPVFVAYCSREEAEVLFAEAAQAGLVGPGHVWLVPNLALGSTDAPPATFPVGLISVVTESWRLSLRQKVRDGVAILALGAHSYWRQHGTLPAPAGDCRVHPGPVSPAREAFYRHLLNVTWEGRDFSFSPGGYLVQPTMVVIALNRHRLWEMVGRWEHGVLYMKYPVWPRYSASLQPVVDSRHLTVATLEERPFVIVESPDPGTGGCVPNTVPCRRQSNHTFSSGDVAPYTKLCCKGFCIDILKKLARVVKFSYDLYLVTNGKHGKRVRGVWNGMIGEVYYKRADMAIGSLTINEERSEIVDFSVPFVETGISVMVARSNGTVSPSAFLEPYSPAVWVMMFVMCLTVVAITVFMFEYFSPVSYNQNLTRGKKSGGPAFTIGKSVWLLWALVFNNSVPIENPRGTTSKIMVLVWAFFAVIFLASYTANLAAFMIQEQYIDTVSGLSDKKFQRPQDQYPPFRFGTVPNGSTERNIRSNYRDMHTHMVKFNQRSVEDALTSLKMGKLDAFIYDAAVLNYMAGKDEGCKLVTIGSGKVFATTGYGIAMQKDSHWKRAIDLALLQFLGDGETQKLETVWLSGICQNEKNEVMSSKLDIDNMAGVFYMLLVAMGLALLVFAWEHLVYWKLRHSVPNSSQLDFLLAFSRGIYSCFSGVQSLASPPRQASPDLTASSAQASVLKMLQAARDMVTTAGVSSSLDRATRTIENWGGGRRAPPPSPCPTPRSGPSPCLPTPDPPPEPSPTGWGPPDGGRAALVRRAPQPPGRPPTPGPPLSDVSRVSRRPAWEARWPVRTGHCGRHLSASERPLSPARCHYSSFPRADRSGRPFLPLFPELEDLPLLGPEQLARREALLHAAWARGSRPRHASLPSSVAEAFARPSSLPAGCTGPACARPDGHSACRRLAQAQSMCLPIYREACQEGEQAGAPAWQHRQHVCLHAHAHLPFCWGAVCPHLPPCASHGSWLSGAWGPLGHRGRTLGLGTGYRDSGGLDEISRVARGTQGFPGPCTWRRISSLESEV

Molecules are shown by their SMILES.

This note sets out measurements from ChEMBL document CHEMBL5729369, “Modulators of the NMDA receptor” (2022).

In general, Ki refers to the equilibrium dissociation constant of an inhibitor or competing ligand from its target. Read a high Ki as a looser hold on the target.

With `N[C@H](CNC(=O)c1cc2nccc(Br)c2s1)C(=O)O`, the inhibition constant (Ki) turned out to be 63 nM.
